Measured values taken from patent US20230151003A1, “COMPOUNDS AND METHODS OF USE” (Exelixis, Inc., priority 2020, published 2023).
pIC50: −log10 of the molar value.

The chains behind the UniProt entries cited, without tags or fusion partners. Residues count along the entry.
UniProt P30530, 26-894 limits assumed: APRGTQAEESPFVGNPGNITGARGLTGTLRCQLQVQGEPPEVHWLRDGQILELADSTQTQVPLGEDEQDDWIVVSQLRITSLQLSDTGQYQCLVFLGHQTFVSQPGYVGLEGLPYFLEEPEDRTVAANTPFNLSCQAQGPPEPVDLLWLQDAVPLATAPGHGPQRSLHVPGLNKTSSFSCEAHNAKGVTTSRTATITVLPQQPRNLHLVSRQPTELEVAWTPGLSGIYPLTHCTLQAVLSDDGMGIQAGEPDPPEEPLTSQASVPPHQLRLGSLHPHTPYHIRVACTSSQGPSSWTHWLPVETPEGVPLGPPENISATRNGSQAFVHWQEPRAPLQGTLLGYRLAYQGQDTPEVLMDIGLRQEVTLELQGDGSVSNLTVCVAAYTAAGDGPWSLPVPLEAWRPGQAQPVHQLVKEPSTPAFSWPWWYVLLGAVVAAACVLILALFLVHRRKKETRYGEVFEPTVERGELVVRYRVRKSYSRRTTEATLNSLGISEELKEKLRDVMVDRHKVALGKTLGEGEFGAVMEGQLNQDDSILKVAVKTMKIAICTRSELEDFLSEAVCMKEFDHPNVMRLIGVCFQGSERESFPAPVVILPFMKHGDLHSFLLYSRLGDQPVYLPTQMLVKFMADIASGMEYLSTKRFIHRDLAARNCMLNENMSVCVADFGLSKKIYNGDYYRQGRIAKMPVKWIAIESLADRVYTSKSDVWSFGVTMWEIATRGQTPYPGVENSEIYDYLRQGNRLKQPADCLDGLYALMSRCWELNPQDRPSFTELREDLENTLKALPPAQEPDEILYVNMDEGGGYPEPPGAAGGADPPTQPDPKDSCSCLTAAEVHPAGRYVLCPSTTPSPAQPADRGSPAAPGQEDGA
UniProt P30530, 473-894 limits assumed: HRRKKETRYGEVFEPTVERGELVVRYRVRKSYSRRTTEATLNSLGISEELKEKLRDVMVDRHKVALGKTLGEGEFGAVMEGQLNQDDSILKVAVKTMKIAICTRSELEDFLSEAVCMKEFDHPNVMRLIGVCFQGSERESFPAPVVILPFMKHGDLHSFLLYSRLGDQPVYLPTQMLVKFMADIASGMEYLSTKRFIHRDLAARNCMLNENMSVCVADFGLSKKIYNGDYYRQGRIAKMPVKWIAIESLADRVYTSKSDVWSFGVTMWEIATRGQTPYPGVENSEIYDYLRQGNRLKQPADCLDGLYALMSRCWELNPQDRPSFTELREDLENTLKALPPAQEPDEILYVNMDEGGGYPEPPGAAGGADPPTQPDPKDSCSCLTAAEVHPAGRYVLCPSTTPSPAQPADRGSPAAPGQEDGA
UniProt Q12866, 21-999 limits assumed: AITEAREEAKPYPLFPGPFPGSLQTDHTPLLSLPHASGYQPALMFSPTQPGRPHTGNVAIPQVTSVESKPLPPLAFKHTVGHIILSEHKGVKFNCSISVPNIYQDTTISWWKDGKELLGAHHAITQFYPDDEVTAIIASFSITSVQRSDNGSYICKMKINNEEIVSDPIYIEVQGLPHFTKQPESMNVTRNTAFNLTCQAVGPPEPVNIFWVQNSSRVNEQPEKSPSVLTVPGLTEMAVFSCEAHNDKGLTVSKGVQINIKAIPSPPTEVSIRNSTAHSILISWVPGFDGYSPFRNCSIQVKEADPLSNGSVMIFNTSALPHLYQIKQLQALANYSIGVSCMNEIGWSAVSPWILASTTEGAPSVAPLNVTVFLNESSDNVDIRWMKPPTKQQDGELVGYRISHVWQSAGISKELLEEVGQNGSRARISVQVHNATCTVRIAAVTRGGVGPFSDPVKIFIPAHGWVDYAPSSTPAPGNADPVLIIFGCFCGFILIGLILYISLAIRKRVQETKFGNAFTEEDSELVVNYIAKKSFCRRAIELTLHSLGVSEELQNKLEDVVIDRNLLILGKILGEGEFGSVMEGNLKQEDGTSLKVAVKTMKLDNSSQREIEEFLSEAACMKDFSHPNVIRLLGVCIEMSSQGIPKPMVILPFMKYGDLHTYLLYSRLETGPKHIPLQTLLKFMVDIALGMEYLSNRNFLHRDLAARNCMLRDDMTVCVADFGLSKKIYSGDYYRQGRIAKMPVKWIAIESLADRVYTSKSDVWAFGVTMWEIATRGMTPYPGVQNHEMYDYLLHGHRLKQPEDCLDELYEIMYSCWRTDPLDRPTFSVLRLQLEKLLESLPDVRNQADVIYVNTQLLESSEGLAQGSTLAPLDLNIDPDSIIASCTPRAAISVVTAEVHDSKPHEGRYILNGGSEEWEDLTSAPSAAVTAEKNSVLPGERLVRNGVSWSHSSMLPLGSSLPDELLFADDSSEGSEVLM
UniProt Q12866, 528-999 limits assumed: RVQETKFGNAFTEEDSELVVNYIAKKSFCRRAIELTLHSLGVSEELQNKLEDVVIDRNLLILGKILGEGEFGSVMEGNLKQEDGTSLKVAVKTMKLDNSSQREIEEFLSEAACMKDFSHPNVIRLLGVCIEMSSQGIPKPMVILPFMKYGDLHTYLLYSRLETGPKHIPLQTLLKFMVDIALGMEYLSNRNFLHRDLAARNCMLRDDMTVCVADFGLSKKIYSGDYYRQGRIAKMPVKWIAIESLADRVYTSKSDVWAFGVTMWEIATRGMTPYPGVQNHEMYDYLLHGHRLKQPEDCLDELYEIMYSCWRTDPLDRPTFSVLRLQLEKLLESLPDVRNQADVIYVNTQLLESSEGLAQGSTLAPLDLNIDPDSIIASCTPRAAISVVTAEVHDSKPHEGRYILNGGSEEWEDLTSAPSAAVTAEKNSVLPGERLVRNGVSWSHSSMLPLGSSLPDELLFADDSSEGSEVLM
UniProt P08581, 25-1390 limits assumed: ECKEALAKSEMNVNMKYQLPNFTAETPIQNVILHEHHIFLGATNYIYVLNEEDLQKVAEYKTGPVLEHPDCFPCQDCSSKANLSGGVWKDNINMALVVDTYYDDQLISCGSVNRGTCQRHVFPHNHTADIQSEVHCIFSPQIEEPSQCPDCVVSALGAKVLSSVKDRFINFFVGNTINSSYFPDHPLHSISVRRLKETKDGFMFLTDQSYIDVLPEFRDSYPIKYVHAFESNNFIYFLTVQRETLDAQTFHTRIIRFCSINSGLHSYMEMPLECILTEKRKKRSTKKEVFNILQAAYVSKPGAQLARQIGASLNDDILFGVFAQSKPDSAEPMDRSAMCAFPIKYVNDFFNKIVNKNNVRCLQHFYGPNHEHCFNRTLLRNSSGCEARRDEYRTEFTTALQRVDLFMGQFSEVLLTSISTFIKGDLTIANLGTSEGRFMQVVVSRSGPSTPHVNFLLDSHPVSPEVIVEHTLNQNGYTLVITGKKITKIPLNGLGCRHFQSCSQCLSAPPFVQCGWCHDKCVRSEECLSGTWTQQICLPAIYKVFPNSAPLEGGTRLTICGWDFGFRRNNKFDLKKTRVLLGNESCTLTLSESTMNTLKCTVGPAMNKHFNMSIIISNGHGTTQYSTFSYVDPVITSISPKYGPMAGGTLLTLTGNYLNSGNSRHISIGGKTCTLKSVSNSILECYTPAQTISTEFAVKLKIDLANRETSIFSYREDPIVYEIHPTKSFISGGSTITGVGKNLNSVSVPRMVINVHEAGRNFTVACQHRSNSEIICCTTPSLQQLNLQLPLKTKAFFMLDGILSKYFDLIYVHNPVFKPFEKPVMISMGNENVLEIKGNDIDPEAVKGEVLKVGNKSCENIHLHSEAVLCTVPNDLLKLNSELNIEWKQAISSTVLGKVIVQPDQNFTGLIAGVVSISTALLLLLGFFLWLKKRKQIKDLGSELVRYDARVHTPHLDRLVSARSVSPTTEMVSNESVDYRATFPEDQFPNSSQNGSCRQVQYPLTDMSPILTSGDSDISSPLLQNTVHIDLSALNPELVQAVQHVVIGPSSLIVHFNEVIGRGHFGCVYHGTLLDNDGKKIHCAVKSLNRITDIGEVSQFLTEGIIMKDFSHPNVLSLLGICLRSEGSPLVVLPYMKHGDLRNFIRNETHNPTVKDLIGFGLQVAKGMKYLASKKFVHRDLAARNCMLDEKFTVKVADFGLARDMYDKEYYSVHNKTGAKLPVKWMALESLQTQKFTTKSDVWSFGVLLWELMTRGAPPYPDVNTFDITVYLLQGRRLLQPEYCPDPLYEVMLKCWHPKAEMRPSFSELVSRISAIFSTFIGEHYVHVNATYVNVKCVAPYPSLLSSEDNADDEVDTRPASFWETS
UniProt P08581, 956-1390 limits assumed: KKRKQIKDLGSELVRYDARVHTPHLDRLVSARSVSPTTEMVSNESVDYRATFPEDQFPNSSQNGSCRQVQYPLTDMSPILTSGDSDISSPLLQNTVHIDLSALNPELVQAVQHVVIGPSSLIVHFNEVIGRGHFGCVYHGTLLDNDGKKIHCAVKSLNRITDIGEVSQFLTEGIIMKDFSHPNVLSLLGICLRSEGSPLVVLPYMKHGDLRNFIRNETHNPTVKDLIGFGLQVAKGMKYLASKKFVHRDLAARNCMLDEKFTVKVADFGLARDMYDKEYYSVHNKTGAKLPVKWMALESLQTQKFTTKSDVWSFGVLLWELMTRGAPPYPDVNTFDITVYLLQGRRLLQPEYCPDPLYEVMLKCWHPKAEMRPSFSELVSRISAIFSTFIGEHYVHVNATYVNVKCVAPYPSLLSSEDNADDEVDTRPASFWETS
UniProt P35968, 20-1356 limits assumed: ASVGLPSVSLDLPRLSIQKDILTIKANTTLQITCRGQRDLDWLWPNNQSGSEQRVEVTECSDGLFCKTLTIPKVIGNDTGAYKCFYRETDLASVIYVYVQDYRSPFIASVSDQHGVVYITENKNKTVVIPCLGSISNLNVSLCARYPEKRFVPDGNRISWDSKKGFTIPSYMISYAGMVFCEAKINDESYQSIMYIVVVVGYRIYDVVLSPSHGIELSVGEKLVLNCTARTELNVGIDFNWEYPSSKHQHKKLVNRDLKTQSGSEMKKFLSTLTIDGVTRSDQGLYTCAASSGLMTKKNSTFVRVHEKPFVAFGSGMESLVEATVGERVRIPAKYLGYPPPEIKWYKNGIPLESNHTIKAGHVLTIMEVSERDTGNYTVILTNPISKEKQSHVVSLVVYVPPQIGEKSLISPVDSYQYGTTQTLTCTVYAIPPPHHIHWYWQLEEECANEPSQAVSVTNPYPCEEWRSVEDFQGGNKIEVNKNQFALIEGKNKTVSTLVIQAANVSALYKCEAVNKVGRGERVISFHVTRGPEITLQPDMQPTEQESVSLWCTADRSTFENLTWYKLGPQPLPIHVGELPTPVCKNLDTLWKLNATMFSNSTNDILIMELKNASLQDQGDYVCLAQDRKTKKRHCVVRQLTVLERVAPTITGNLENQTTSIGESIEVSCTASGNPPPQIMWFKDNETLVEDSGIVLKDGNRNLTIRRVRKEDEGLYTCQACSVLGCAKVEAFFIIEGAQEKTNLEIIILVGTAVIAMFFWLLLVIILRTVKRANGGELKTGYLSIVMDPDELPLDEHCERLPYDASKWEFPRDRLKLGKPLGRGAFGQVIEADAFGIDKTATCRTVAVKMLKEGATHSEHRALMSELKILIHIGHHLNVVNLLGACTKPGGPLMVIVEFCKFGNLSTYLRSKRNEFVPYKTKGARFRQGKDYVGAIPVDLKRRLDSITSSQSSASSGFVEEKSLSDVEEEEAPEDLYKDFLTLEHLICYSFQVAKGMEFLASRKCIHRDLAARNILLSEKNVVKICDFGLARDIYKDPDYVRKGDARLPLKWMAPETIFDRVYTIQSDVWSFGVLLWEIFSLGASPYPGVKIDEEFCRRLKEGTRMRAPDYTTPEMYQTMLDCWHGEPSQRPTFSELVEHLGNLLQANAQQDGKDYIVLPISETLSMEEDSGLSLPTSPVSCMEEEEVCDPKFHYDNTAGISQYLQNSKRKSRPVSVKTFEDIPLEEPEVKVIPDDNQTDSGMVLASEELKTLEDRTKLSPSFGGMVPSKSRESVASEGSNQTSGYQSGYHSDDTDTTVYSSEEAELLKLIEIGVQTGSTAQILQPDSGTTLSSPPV
UniProt P35968, 790-1356 limits assumed: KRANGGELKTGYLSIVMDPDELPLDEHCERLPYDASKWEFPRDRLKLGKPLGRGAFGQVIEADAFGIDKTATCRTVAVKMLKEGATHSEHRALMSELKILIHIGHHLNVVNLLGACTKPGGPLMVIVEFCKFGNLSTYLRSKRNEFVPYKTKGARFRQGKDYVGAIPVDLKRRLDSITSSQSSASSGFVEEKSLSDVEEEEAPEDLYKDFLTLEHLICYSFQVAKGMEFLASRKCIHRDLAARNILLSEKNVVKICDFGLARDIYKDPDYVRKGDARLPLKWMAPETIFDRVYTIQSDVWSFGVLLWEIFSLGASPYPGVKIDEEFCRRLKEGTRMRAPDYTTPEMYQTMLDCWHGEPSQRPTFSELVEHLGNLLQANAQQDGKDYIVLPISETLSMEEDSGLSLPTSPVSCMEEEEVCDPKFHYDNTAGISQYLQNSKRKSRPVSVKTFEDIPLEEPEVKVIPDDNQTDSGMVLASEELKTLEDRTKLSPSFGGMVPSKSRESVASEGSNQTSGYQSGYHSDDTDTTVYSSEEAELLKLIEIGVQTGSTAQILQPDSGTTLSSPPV

Assays:
AXL [1] = target: T1, AXL (Homo sapiens, UniProt P30530); assay: AXL autophosphorylation ELISA in A-172 cells; conditions: read-out: Axl IC50, Table 3 Cellular Activities, Gas6-stimulated, phospho-AXL ELISA
Protocol: A-172 glioblastoma cells (ATCC #CRL-1620) were seeded at 2.5×10^5 cells/well onto 24-well plates (Greiner #662165), in DMEM (Thermo Fisher #11995-040) containing 10% FBS (Thermo Fisher #26140-079), 1% MEM NEAA (Thermo Fisher #11140-050), 1% GlutaMax (Thermo Fisher #35050-061), and 1% Penicillin Streptomycin (Thermo Fisher #15140-122). A-172 cells were incubated at 37° C., 5% CO2 for 24 h and then starved for 24 h in serum-free medium. Test compounds were serially diluted to produce an 8-point dose curve in fresh serum-free medium to a final concentration of 0.3% DMSO (vehicle) and added to the cells and incubated for 1 h. Cells were then stimulated with 1 μg/mL recombinant human Gas6 (R&D Systems #885-GSB-500) for 15 min, washed with cold PBS, and immediately lysed with 150 μL of cold 1× lysis buffer [20 mM Tris, 137 mM sodium chloride, 2 mM EDTA, 10% glycerol, 1% NP-40 alternative, 1 mM activated sodium orthovanadate, 1 mM PefaBloc SC (Sigma-Aldrich #11429868001), protease/phosphatase inhibitor tablet (Thermo Fisher #A32959)]. Lysates were collected and 100 μL/well added into the human phospho-AXL DuoSet IC ELISA (R&D Systems #DYC2228-2). Assay was performed according to manufacturer's instructions and sample phospho-AXL concentrations were extrapolated using human phospho-AXL control (R&D Systems #841645) as a standard. Positive control wells (100% activity) contained Gas6-stimulated, DMSO-treated cell lysates. Negative control wells (0% activity) contained Gas6-stimulated, reference inhibitor-treated cell lysates. IC50 values were calculated by nonlinear regression analysis using a 4-parameter logistic curve fit in ActivityBase XE (IDBS).

Mer [2] = target: T2, Mer (Homo sapiens, UniProt Q12866); assay: Mer autophosphorylation ELISA in transient transfected 293A cells; conditions: read-out: Mer IC50; Table 3 Cellular Activities; MERTK-transfected 293A cells, phospho-Mer ELISA
Protocol: 293A cells (Thermo Fisher #R70507) were seeded at 1.5×10^6 cells/well onto 100 mm dish (Greiner #664169), in DMEM (Thermo Fisher #11995-040) containing 10% FBS (Thermo Fisher #26140-079), 1% MEM NEAA (Thermo Fisher #11140-050), 1% GlutaMax (Thermo Fisher #35050-061), and 1% Penicillin Streptomycin (Thermo Fisher #15140-122). 293A cells were incubated at 37° C., 5% CO2 for 24 h and then transfected with 6μg MERTK DNA (Genecopoeia #EX-Z8208-M02) using TransIT LT1 transfection reagent (Mirus-Bio #MIR2305). After 24 h incubation, the transfected 293A cells were seeded at 1×10^5 cells/well onto 96-well plates (Corning #3904) in DMEM growth medium overnight. Test compounds were serially diluted to produce an 8-point dose curve in fresh serum-free medium to a final concentration of 0.3% DMSO (vehicle) and added to the cells and incubated for 1 h. Cells were then immediately lysed with 150 μL of cold 1× lysis buffer […], 137 mM sodium chloride, 2 mM EDTA, 10% glycerol, 1% NP-40 alternative, 1 mM activated sodium orthovanadate, 1 mM PefaBloc SC (Sigma-Aldrich #11429868001), protease/phosphatase inhibitor tablet (Thermo Fisher #A32959)]. Lysates were clarified by centrifugation and 50 μL/well added into the human phospho-Mer DuoSet IC ELISA (R&D Systems #DYC2579-2). Assay was performed according to manufacturer's instructions and sample phospho-Mer concentrations were extrapolated using human phospho-Mer control (R&D Systems #841793) as a standard. Positive control wells (100% activity) contained DMSO-treated cell lysates. Negative control wells (0% activity) contained reference inhibitor-treated cell lysates. IC50 values were calculated by nonlinear regression analysis using a 4-parameter logistic curve fit in ActivityBase XE (IDBS).

Met [3] = target: T3, Met (Homo sapiens, UniProt P08581); assay: Met autophosphorylation ELISA in PC-3 cells; conditions: read-out: c-Met IC50, Table 3 Cellular Activities, HGF-stimulated, phospho-Met ELISA
Protocol: PC-3 prostate cancer cells (ATCC #CRL-1435) were seeded at 4×10^4 cells/well onto 24-well plates (Greiner #662165), in DMEM (Thermo Fisher #11995-040) containing 10% FBS (Thermo Fisher #26140-079), 1% MEM NEAA (Thermo Fisher #11140-050), 1% GlutaMax (Thermo Fisher #35050-061), and 1% Penicillin Streptomycin (Thermo Fisher #15140-122). PC-3 cells were incubated at 37° C., 5% CO2 for 24 h and then starved for 3 h in serum-free medium. Test compounds were serially diluted to produce an 8-point dose curve in fresh serum-free medium to a final concentration of 0.3% DMSO (vehicle) and added to the cells and incubated for 1 h. Cells were then stimulated with 100 ng/mL recombinant human HGF (R&D Systems #294-HG-250) for 10 min, washed with cold PBS, and immediately lysed with 130 μL of cold 1× lysis buffer [20 mM Tris, 137 mM sodium chloride, 2 mM EDTA, 10% glycerol, 1% NP-40 alternative, 1 mM activated sodium orthovanadate, 1 mM PefaBloc SC (Sigma-Aldrich #11429868001), protease/phosphatase inhibitor tablet (Thermo Fisher #A32959)]. Lysates were clarified by centrifugation and 100 μL/well added into the PathScan phospho-Met (panTyr) Sandwich ELISA (Cell Signaling Technology #7333). Assay was performed according to manufacturer's instructions. Positive control wells (100% activity) contained HGF-stimulated, DMSO-treated cell lysates. Negative control wells (0% activity) contained HGF-stimulated, reference inhibitor-treated cell lysates. IC50 values were calculated by nonlinear regression analysis using a 4-parameter logistic curve fit in ActivityBase XE (IDBS).

KDR [4] = target: T4, KDR (Homo sapiens, UniProt P35968); assay: KDR autophosphorylation ELISA in HUVEC cells; conditions: read-out: KDR IC50, Table 3 Cellular Activities, VEGF165-stimulated, phospho-KDR ELISA
Protocol: Human umbilical vein endothelial cells or HUVEC (Lonza #C2519A) were seeded at 2×10^4 cells/well onto 96-well plates (Corning #3904), in EGM-2 growth medium (Lonza #CC-3162) containing 1% Penicillin Streptomycin (Thermo Fisher #15140-122). HUVEC cells were incubated at 37° C., 5% CO2 for 24 h and then starved for 24 h in serum-free EBM-2 basal medium (Lonza #CC-3156) containing 1% Penicillin Streptomycin. Test compounds were serially diluted to produce an 8-point dose curve in fresh serum-free medium to a final concentration of 0.3% DMSO (vehicle) and added to the cells and incubated for 1 h. Cells were then stimulated with 100 ng/mL recombinant human VEGF165 (R&D Systems #293-VE-500) for 5 min, washed with cold PBS, and immediately lysed with 130 μL of cold 1× lysis buffer [20 mM Tris, 137 mM sodium chloride, 2 mM EDTA, 10% glycerol, 1% NP-40 alternative, 1 mM activated sodium orthovanadate, 1 mM PefaBloc SC (Sigma-Aldrich #11429868001), protease/phosphatase inhibitor tablet (Thermo Fisher #A32959)]. Lysates were collected and 100 μL/well added into the human phospho-KDR DuoSet IC ELISA (R&D Systems #DYC1766-2). Assay was performed according to manufacturer's instructions and sample phospho-KDR concentrations were extrapolated using human phospho-KDR control (R&D Systems #841421) as a standard. Positive control wells (100% activity) contained VEGF165-stimulated, DMSO-treated cell lysates. Negative control wells (0% activity) contained non-stimulated cell lysates. IC50 values were calculated by nonlinear regression analysis using a 4-parameter logistic curve fit in ActivityBase XE (IDBS).

Met [5] = target: T3, Met; assay: Human MET kinase assay (HTRF KinEase); conditions: read-out: c-Met IC50, Table 2 Biological Activities, ATP at Km (3.0 μM)
Protocol: (§1) Kinase activity and compound inhibition were investigated using the HTRF® KinEase assay (Cisbio Cat #62TKOPEB) per manufacturer's instructions. In short, compounds were delivered in 300 nL volumes at 10 different concentrations in DMSO (3% final) to empty 384-well assay plates (Corning cat #3824). A mixture of enzyme, 1 μM biotynlated peptide substrate, and buffer in 10 μL volume was added. The assay was started upon the addition of ATP (at Km). The 10 μL reaction was incubated at room temperature. The reaction was stopped upon the addition of detection buffer containing streptavidin-XL665 (5 μL) and TK antibody-Eu3+ (5 μL). After a 60 min incubation at room temperature, the fluorescence at 665 nm and 620 nm was read on an Envision microplate reader (Perkin Elmer). Kinase activity normalized to DMSO (100% activity) and reference compound at 1 μM and (0% activity) was calculated using the fluorescence ratio […]. IC50 values were calculated by nonlinear regression analysis using a 4-parameter logistic curve fit in ActivityBase XE (IDBS).
(§2) Human MET (residues 956-1390; CarnaBio, 0.1 ng/ well) was incubated with enzymatic buffer (Cisbio) supplemented with 5 mM MgCl2, 1 mM DTT and 1 mM MnCl2. The mixture was added to the pre-plated compounds. […] The kinase activity was calculated as stated above and the IC50 values were reported.

Mer [6] = target: T2, Mer; assay: Human MER kinase assay (HTRF KinEase); conditions: read-out: Mer IC50, Table 2 Biological Activities, ATP at Km (40 μM)
Protocol: as §1
Human MER (residues 528-999; CarnaBio, 1 ng/ well) was incubated with enzymatic buffer (Cisbio) supplemented with 5 mM MgCl2 and 1 mM DTT. The mixture was added to the pre-plated compounds. The reaction was initiated upon addition of ATP at Km (40 μM). […] The kinase activity was calculated as stated above and the IC50 values were reported.

AXL [7] = target: T1, AXL; assay: Human AXL kinase assay (HTRF KinEase); assay type: biochemical; conditions: read-out: Axl IC50, Table 2 Biological Activities, ATP at Km (1.0 μM)
Protocol: as §1
as §2, with “AXL” for “MET”, “464-885;” for “956-1390;”, “1” for “0.1”, “DTT,” for “DTT”, “Supplemental Enzymatic Buffer (SEB; Cisbio).” for “1 mM MnCl2.”

KDR [8] = target: T4, KDR; assay: Human KDR kinase assay (HTRF KinEase); conditions: read-out: KDR IC50, Table 2 Biological Activities, ATP at Km (4.0 μM)
Protocol: as §1
Human KDR (residues 790-1356; CarnaBio, 0.1 ng/ well) was incubated with enzymatic buffer (Cisbio) supplemented with 5 mM MgCl2, 1 mM MnCl2, and 1 mM DTT. The mixture was added to the pre-plated compounds. […] The kinase activity was calculated as stated above and the IC50 values were reported.

| pIC50 (Met [5]) | pIC50 (Mer [6]) | pIC50 (AXL [7]) | pIC50 (KDR [8]) | Structure (SMILES) | pIC50 (AXL [1]) | pIC50 (Mer [2]) | pIC50 (Met [3]) | pIC50 (KDR [4]) |
| --- | --- | --- | --- | --- | --- | --- | --- | --- |
| – | – | – | – | COc1cc2c(Oc3ccc(NC(=O)c4ccc(C)n(-c5ccc(F)cn5)c4=O)cc3F)ccnc2cn1 | > 7.00 | > 7.00 | > 7.00 | > 7.00 |
| > 7.00 | > 7.00 | > 7.00 | 6.00 to 6.52 | COc1cnc2c(Oc3ccc(NC(=O)c4ccc(C)n(-c5ccc(F)cn5)c4=O)cc3)ccnc2c1 | > 7.00 | > 7.00 | > 7.00 | > 7.00 |
| – | – | – | – | COCc1nc(C)c(-c2ccco2)c(O)c1C(=O)Nc1ccc(Oc2ccnc3cc(OC)c(OC)nc23)c(F)c1 | > 7.00 | > 7.00 | > 7.00 | > 7.00 |
